Values of other authors as cited in paper PMC9013686, “Inter-individual variation in chlorpyrifos toxicokinetics characterized by physiologically based kinetic (PBK) and Monte Carlo simulation comparing human liver microsome and Supersome™ cytochromes P450 (CYP)-specific kinetic data as model input” (Archives of Toxicology, 2022).

How the values were obtained:
RBC AChE = test system: RBC AChE; set-up: method as in Eyer et al. ([2009]); conditions: corrected for unbound fraction in plasma of 0.15; ref Eyer et al. ([2009]); cited from earlier work
[1] = ref Heilmair et al. ([2008]); cited from earlier work

For `CCOP(=O)(OCC)Oc1nc(Cl)c(Cl)cc1Cl` [CPO, chlorpyrifos-oxon], the IC50 (RBC AChE) is listed as 3.1 nM and the “unbound fraction in plasma (fuCPOin vivo(plasma))” value [1] is listed as 0.15.
